Experiments:
MAO-B = biological target: T1, MAO-B (Homo sapiens, UniProt P27338); assay: MAO-B activity and inhibition assay (peroxidase-coupled, tyramine); format: biochemical; settings: ratio of k(inact)/Ki(inact)
T1 construct: purchased Sigma M 7441
Experimental: (§1) MAO-A was purchased from Sigma (product number: M 7316). MAO-B was purchased from Sigma (product number: M 7441). MAO-A/B activity was measured spectrophotometrically using a peroxidase-coupled assay as previously described. Forneris, F., et al. (2005). 100 μL reactions were initiated by the addition of 2 μL of MAO-A/B (to obtain 100-200 nM final concentration for MAO-A and 0.837 M final concentration for MAO-B) to reaction mixtures consisting of 50 mM HEPES buffer (pH 7.5), 0.1 mM 4-aminoantipyrine, 1 mM 3,5-dichloro-2-hydroxybenzenesulfonic acid, 0.04 mg/mL horseradish peroxidase (Worthington Biochemical Corporation), and appropriate concentration of buffered substrate (tyramine). Absorbance changes were measured at 515 nm using a Beckman Instruments DU series 600 spectrophotometer equipped with a thermostatted cell holder (T=25° C.), and product formation was calculated using the extinction coefficient of 26,000 M^−1.
(§2) […]. Reactions were run at similar conditions as previously stated with 125 µM tyramine substrate for MAO-A and with 125-1,000 M tyramine substrate for MAO-B. Progress curves were then fit accordingly to eqs 1-3 as previously stated. Each experiment was repeated at least two independent times and repeat measured values were typically within 20% of each other.

Protein sequences, listed by entry. Tags and fused reporters are not part of them.
UniProt P27338, whole entry: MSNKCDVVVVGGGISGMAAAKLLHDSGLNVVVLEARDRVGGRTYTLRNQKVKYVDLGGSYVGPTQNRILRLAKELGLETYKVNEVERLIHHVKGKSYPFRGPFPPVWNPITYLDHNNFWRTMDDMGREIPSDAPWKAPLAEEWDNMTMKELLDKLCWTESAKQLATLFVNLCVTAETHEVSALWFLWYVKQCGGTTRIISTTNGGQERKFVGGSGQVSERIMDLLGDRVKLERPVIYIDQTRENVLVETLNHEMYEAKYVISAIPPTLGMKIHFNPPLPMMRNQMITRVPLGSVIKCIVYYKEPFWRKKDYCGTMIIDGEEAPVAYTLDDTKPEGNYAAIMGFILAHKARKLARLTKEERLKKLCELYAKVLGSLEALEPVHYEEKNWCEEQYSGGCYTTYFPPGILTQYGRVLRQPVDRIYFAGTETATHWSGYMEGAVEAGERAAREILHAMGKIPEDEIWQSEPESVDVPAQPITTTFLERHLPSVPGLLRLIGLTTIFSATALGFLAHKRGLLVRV
UniProt P21397, whole entry: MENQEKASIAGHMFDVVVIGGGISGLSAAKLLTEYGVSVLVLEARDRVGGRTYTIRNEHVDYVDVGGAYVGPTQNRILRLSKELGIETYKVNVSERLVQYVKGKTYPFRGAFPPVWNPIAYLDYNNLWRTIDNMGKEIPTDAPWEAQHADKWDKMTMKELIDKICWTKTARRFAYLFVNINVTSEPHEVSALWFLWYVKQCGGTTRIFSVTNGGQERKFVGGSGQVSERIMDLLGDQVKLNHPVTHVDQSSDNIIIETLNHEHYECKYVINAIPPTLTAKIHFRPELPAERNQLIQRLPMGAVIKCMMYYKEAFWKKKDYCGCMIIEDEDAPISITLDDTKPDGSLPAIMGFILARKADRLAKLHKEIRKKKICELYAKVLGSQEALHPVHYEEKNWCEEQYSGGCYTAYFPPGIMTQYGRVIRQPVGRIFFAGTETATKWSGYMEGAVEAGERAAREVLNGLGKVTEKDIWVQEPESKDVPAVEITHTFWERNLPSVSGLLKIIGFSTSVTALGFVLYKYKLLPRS

MAO-A = biological target: T2, MAO-A (Homo sapiens, UniProt P21397); assay: MAO-A activity and inhibition assay (peroxidase-coupled, tyramine); format: biochemical; settings: ratio of k(inact)/Ki(inact)
T2 construct: purchased Sigma M 7316
Experimental: as §1, §2

## NNCCc1ccccc1 [phenelzine]
MAO-B
  Selectivity for LSD1 vs. Enzyme Tested: 1.24
MAO-A
  Selectivity for LSD1 vs. Enzyme Tested: 0.217

From patent US20170029366A1, “INHIBITORS OF HISTONE LYSINE SPECIFIC DEMETHYLASE (LSD1) AND HISTONE DEACETYLASES (HDACS)” (THE JOHNS HOPKINS UNIVERSITY, priority 2014, published 2017)
